Measurements taken from ChEMBL document CHEMBL5212743, “Selectivity Literature for EUbOPEN Chemogenomics Library wave 3” (2023).

Molecular target: Mu-type opioid receptor (Homo sapiens, UniProt P35372)
Assay: Selectivity interaction (Enzyme panel (GPCRS, ion channels, and transporters)) EUB0000194b OPRM1

COc1cc2c(NC3CCN(C(C)C)CC3)nc(N3CCC(F)(F)CC3)nc2cc1OCCCN1CCCC1
Ki: > 10 µM
